Compound activity: PubChem BioAssay, National Center for Advancing Translational Sciences (NCATS)
Sampled rows, rich in hits. Any-hit rate of the full collection: about 2.9%.
PTAP TSG101 blk: blocks PTAP/TSG101 interaction to inhibit HIV-1 budding. Potency, µM (doses to about 115 µM), without a hit: at the highest dose activity change, negative = inhibition, hits mostly inhibitors. AID 493005. Fluorescence polarization, FITC-PTAP peptide / Tsg101 binding. 340,000 tested, under 10 active; active = well fitted inhibition curve with a large enough effect in the main read-out, with a control signal flat, not every such curve was filed as active; inconclusive = small, poorly fitted or top-dose-only effect, or effect the other way, or a change in a side signal; inactive = no such curve, though single readings can be large or run the other way; note: potency is the fitted concentration of half-maximal effect; % of control where 0% means no effect
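Fluorescence anisotropy tracks displacement of a FITC-tagged PTAP peptide (50 nM) from the Tsg101 binding domain (10 uM), following a 20 min room-temperature incubation at pH 7.5.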
D3 ag: D3 dopamine receptor (human) agonism; P35462; D3R DiscoveRx beta-arrestin cells, luminescence, 90 min; max activation, %; 0.58% of 410,000 active; in the data active = max activation above about 30%; note: 0% is about no effect
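Agonist mode: compounds and dopamine controls were applied to plated cells for 90 min at 37 degrees C after an overnight attachment at 1500 cells/well. Luminescent read-out followed 30 - 60 minutes at room temperature with DiscoveRx detection reagent.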
D3 antag: D3 dopamine receptor (human) antagonism | P35462 | AID 652054 | D3R cells, DiscoveRx beta-arrestin luminescence, antagonist mode; hits give low values | max response, negative = inhibition, % | 2.5% of 360,000 active; in the data active = max response below about -50%; inconclusive = no clear call, values can overlap the other calls; note: % is set by controls: 0 for no effect and ±100 for the full control effect
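Cells plated overnight at 1500 cells/well, then exposed to library compounds with dopamine controls for 90 minutes at 37 degrees C. DiscoveRx reagent added for 30–60 minutes at room temperature; luminescence read, quantitative HTS format.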
Rango complex inh: inhibitors of Rango-importin beta complex formation; Q14974; Rango CFP/YFP FRET sensor + importin beta, 45 min; Potency, µM (titrated, usually from 92.2 µM), inactives show top-dose inhibition of complex formation; 0.031% of 340,000 active; AID 540263;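 note: potency is the fitted concentration of half-maximal effect; 0% = DMSO wells and 100% = buffer wells lacking importin beta; nearly all actives have a fitted effect of over 15% in size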
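FRET biosensor (snurportin 1 IBB flanked by EYFP and cerulean), 50 nM, with compound 5 min, then 0.125 microM importin beta in PBS, 1 mM DTT, 0.02% Tween-20, 0.1% BSA. CFP/YFP ratio read after 45 min at room temperature; pre-read flags interference.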
MmCpn inh: M. maripaludis TRiC chaperonin inhibition. purified Mm-Cpn ATPase, ADP Transcreener TR-FRET. 0.031% of 330,000 active. Potency, µM (series often up to 76.9 µM), inactives show at the highest dose activity, negative = inhibition, usual class: inhibitors; active = well fitted inhibition curve with a large enough effect; inconclusive = small, poorly fitted or top-dose-only effect; note: potency is the fitted concentration of half-maximal effect; % is set by controls: 0 for no effect and ±100 for the full control effect; nearly all actives have a fitted effect of over 80% in size
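Inhibition of chaperonin ATP hydrolysis is measured as reduced ADP production, detected by competitive TR-FRET in which signal falls with ADP. Final enzyme 25 nM and ATP 10 uM, reacted 30 min at 37°C.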
Rango dissoc inh: prevents RanGTP from dissociating the Rango-importin beta complex. O95149+P62826. Biochemical FRET Rango-importin beta, RanGTP-induced dissociation. Potency, µM (series often up to 46.1 µM), inactives show at the top dose activity change, negative = inhibition. 0.071% of 340,000 active. AID 540253; note: potency is the fitted concentration of half-maximal effect; % of control where 0% means no effect; nearly all actives have a fitted effect of over 45% in size
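Two FRET readings bracket the reaction: one 5 min after compound meets Rango–importin beta, another 45 min after RanGTP-RCC1 (0.6 uM Ran, 0.2 uM RCC1, 2 mM GTP) is added. Only the second defines inhibition.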
Numbers without * were called inactive; ? = inconclusive; . = no result; ! = not confirmed by another sample. Unless noted, calls come from the whole dose curve.

| item | SMILES | PTAP TSG101 blk | D3 ag | D3 antag |
| --- | --- | --- | --- | --- |
| 1 | O=C(CN1CCC(n2nnc3cc(F)ccc32)CC1)NCCc1nc2ccccc2[nH]1 | -5.2% | -33.8 | -64.8* |
| 2 | O=C(CN1CCC(n2nnc3cc(F)ccc32)CC1)N1CCCc2ccccc21 | -0.7% | 0.1 | -53.7* |
| 3 | O=C(CN1CCC(n2nnc3cc(C(F)(F)F)ccc32)CC1)N1CCc2ccccc21 | -2.1% | -14.8 | -26.1 |
| 4 | CC1CCC(NC(=O)CN2CCC(n3nnc4cc(F)ccc43)CC2)CC1 (stereo not given) | -1.1% | 0.3 | -67.1* |
| 5 | Cc1ccc2c(c1)nnn2C1CCN(CC(=O)N2c3ccccc3CC2C)CC1 (stereo not given) | -5.2% | -8.8 | -70.2* |
| 6 | Cc1ccc2c(c1)nnn2C1CCN(CC(=O)N(c2ccccc2)c2ccccc2)CC1 | -5.3% | -8.0 | -6.1 |
| 7 | CCc1ccc(NC(=O)N2CCOc3ccc(Cl)cc32)cc1 | . | -10.6 | . |
| 8 | O=C(O)c1cc(O)c2c(c1)[C@H]([C@H]1c3cc(C(=O)O)cc(O)c3C(=O)c3c(O[C@@H]4O[C@H](CO)[C@@H](O)[C@H](O)[C@H]4O)cccc31)c1cccc(O[C@@H]3O[C@H](CO)[C@@H](O)[C@H](O)[C@H]3O)c1C2=O | . | -8.1 | . |
| 9 | O=C(CN1CCC(n2nnc3ccccc32)CC1)Nc1ccc2c(c1)CCC2 | -6.4% | -6.5 | -65.1* |
| 10 | Cc1ccccc1NC(=O)CN1CCC(n2nnc3ccccc32)CC1 | -3.5% | -0.4 | ? |
| 11 | O=C(CN1CCC(n2nnc3cc(F)ccc32)CC1)Nc1ccc2c(c1)CCC2 | -0.4% | -11.1 | -76.0* |
| 12 | CCCOc1ccc(-c2nc(N3CCN(CC)CC3)c3ccccc3n2)cc1 | -10.0% | -2.8 | ? |
| 13 | CN1CCN(c2nc(-c3ccccn3)nc3ccccc23)CC1 | -4.9% | 4.5 | -50.7* |
| 14 | c1ccc(N2CCN(c3nc(-c4ccccn4)nc4ccccc34)CC2)cc1 | 0.5% | -11.5 | -81.8* |
| 15 | CCCOc1ccc(-c2nc(N3CCN(C)CC3)c3ccccc3n2)cc1 | -6.3% | -9.9 | -58.8* |

| item | Rango complex inh | MmCpn inh | Rango dissoc inh |
| --- | --- | --- | --- |
| 1 | -8.0% | 0.3% | 17.8% |
| 2 | -3.1% | 0.7% | 2.9% |
| 3 | -1.0% | 0.1% | 5.6% |
| 4 | 0.2% | -1.1% | 0.8% |
| 5 | 3.3% | 0.4% | -5.3% |
| 6 | -0.9% | -4.7% | -14.0% |
| 7 | . | . | . |
| 8 | . | . | . |
| 9 | -0.6% | -0.4% | 12.3% |
| 10 | -0.9% | -13.6% | -11.6% |
| 11 | 0.3% | -0.8% | 0.1% |
| 12 | 0.6% | 1.0% | -1.8% |
| 13 | 3.0% | -0.3% | -13.1% |
| 14 | 2.2% | 1.4% | 11.9% |
| 15 | -1.0% | -8.1% | -4.7% |

Next section:
| item | SMILES | PTAP TSG101 blk | D3 ag | D3 antag |
| --- | --- | --- | --- | --- |
| 16 | OC(COC1CCCCC1)CN1CCCCC1 (stereo not given) | -1.6% | -18.1 | -71.7* |
| 17 | Cc1ccc(N2CCN(CC(O)COC3CCCCC3)CC2)cc1 (stereo not given) | -2.1% | -13.0 | -89.6* |
| 18 | CC(C)(C)C1CCC(OCC(O)CN2CCN(c3ccccc3)CC2)CC1 (stereo not given) | -4.9% | 58.7* | -20.1 |
| 19 | CC(C)(C)C1CCC(OCC(O)CN2CCCC2)CC1 (stereo not given) | 0.7% | -8.5 | 2.6 |
| 20 | Cc1ccc(N2CCN(CC(O)COc3cccc(C)c3)CC2)cc1 (stereo not given) | -7.3% | 1.1 | ? |
| 21 | CC1CCN(CC(O)COC2CCC(C(C)(C)C)CC2)CC1 (stereo not given) | -1.4% | -16.0 | -55.6* |
| 22 | O=C(CSc1nc2ccccc2nc1Cc1ccc(Cl)cc1)N1CCCc2ccccc21 | . | -15.1 | . |
| 23 | CNC(=O)C1CCN(Cc2cc3ccccc3n2Cc2cccc(C)c2)CC1 | . | -16.7 | . |
| 24 | Cc1nn(-c2nc(-c3ccc(F)cc3)cc(C(F)(F)F)n2)c(C)c1Cl | . | 3.0 | . |
| 25 | C=C(CN(C)C)C(=O)c1cc(C)ccc1C | -0.6% | -18.2 | -87.6* |
| 26 | Cc1ccc(C)c(C(=O)NCCN(C)C)c1 | -4.6% | -2.4 | 11.1 |
| 27 | O=C(CNC(=O)c1ccccc1F)OCC(=O)c1ccc(Cl)s1 | -2.9% | -2.9 | 0.9 |
| 28 | Cc1ccc2c(c1)C(=O)C(=O)N2Cc1ccc(C(F)(F)F)cc1 | -0.3% | -30.0 | -50.8* |
| 29 | CCCN1CCN(c2ncnc3sc(C(=O)Nc4c(C)cc(C)cc4C)c(C)c23)CC1 | . | -10.1 | . |
| 30 | CCC1Oc2ccc(C)cc2N(CC(=O)NCCCN2CCCC2)C1=O (stereo not given) | -0.9% | -16.6 | -67.9* |

| item | Rango complex inh | MmCpn inh | Rango dissoc inh |
| --- | --- | --- | --- |
| 16 | 1.8% | 0.9% | 7.3% |
| 17 | -0.6% | 1.2% | -7.7% |
| 18 | -0.8% | 0.3% | 1.2% |
| 19 | -3.4% | 1.1% | -0.1% |
| 20 | 0.2% | 0.7% | 31.3% |
| 21 | 3.0% | -0.7% | -5.7% |
| 22 | . | . | . |
| 23 | . | . | . |
| 24 | . | . | . |
| 25 | 1.7% | . | 1.9% |
| 26 | -0.7% | 2.1% | -0.7% |
| 27 | 0.2% | -10.0% | -2.8% |
| 28 | 0.1% | -0.3% | 27.1% |
| 29 | . | . | . |
| 30 | 5.7% | 2.2% | -4.7% |

In another format: entries from further up.
15. CCCOc1ccc(-c2nc(N3CCN(C)CC3)c3ccccc3n2)cc1
  PTAP TSG101 blk = -6.3%; D3 ag = -9.9; D3 antag = -58.8*; Rango complex inh = -1.0%; MmCpn inh = -8.1%; Rango dissoc inh = -4.7%

16. OC(COC1CCCCC1)CN1CCCCC1 (stereo not given)
  PTAP TSG101 blk = -1.6%; D3 ag = -18.1; D3 antag = -71.7*; Rango complex inh = 1.8%; MmCpn inh = 0.9%; Rango dissoc inh = 7.3%

17. Cc1ccc(N2CCN(CC(O)COC3CCCCC3)CC2)cc1 (stereo not given)
  PTAP TSG101 blk = -2.1%; D3 ag = -13.0; D3 antag = -89.6*; Rango complex inh = -0.6%; MmCpn inh = 1.2%; Rango dissoc inh = -7.7%

18. CC(C)(C)C1CCC(OCC(O)CN2CCN(c3ccccc3)CC2)CC1 (stereo not given)
  PTAP TSG101 blk = -4.9%; D3 ag = 58.7*; D3 antag = -20.1; Rango complex inh = -0.8%; MmCpn inh = 0.3%; Rango dissoc inh = 1.2%

Next section:
| item | SMILES | PTAP TSG101 blk | D3 ag | D3 antag |
| --- | --- | --- | --- | --- |
| 31 | CCC1Oc2ccccc2N(CC(=O)NCCN2CCc3ccccc3C2)C1=O (stereo not given) | -6.1% | -28.4 | -53.3* |
| 32 | CN1CCN(c2ccccc2NS(=O)(=O)c2ccc3c(c2)CCN3C(=O)C2CCC2)CC1 | 0.9% | -12.0 | -51.8* |
| 33 | Cc1ccc(S(=O)(=O)NNC(=O)c2ccccc2O)cc1 | -1.7% | 0.3 | 7.6 |
| 34 | Cc1ccc(/C=N/NC(=O)c2ccncc2)cc1 | -9.6% | -5.1 | ? |
| 35 | Cc1ccc(/C=N\NC(=O)c2csnn2)cc1 | -1.9% | -9.9 | -53.1* |
| 36 | Cc1ccc(S(=O)(=O)NNC(=O)c2csnn2)cc1 | -7.8% | 5.0 | 2.5 |
| 37 | Cc1ccc(Cl)cc1N1CCN(C(=O)c2ccc3c(c2)N(Cc2ccc(F)cc2)CCS3)CC1 | . | -3.7 | . |
| 38 | COc1ccc(-c2cn3nc(N4CCC(C(=O)Nc5cccc(Cl)c5)CC4)sc3n2)cc1 | . | -15.1 | . |
| 39 | COC(=O)[C@@H]1[C@@H](C#N)C2(c3ccccc3-c3ccccc32)N(c2ccc(Cl)cc2)N1C#N | -0.3% | -6.2 | -54.2* |
| 40 | CCc1cc2c(-c3ccccc3)cc(=O)oc2cc1OC(=O)c1cccs1 | -0.5% | -0.3 | 5.0 |
| 41 | O=C(Oc1ccc2c(-c3ccccc3)cc(=O)oc2c1)c1cccs1 | 3.8% | -3.1 | -1.1 |
| 42 | COCCCNC(=O)c1cc2c(=O)n3cccc(C)c3nc2s1 | -4.2% | 31.5*! | -3.4 |
| 43 | CCCCNC(=O)c1cc2c(=O)n3cccc(C)c3nc2s1 | 0.7% | -3.9 | -2.3 |
| 44 | COCCCNC(=O)/C(C#N)=C/c1c(N2CCN(c3ccc(OC)cc3)CC2)nc2c(C)cccn2c1=O | -1.2% | 3.3 | 15.2 |
| 45 | Cc1cccc(OCCCCn2c(C3CC(=O)N(c4ccc(C)cc4C)C3)nc3ccccc32)c1 (stereo not given) | . | -3.9 | . |

| item | Rango complex inh | MmCpn inh | Rango dissoc inh |
| --- | --- | --- | --- |
| 31 | 7.0% | -0.3% | 15.8% |
| 32 | -4.6% | . | -5.2% |
| 33 | -0.6% | -1.4% | 4.7% |
| 34 | 0.0% | -6.1% | 2.1% |
| 35 | 0.3% | -0.4% | 0.8% |
| 36 | 51.7µM* | 0.4% | ? |
| 37 | . | . | . |
| 38 | . | . | . |
| 39 | 2.6% | -0.4% | -0.5% |
| 40 | ? | -2.7% | 5.17µM* |
| 41 | ? | -0.7% | ? |
| 42 | -4.5% | 0.1% | ? |
| 43 | ? | -5.6% | 0.8% |
| 44 | ? | -2.5% | 4.61µM* |
| 45 | . | . | . |
